Measurements reported in ChEMBL document CHEMBL1140447, “Synthesis and antimuscarinic properties of quinuclidin-3-yl 1,2,3,4-tetrahydroisoquinoline-2-carboxylate derivatives as novel muscarinic receptor antagonists” (J Med Chem, 2005).

Experiments:
[1] = molecular target: Muscarinic acetylcholine receptor M1 (Rattus norvegicus, UniProt P08482); assay: Binding affinity for rat cortex muscarinic acetylcholine receptor M1 using [3H]pirenzepine
[2] = molecular target: Muscarinic acetylcholine receptor M3 (Rattus norvegicus, UniProt P08483); assay: Binding affinity for rat salivary gland muscarinic acetylcholine receptor M3 using [3H]N-methylscopolamine
[3] = molecular target: Muscarinic acetylcholine receptor M2 (Rattus norvegicus, UniProt P10980); assay: Binding affinity for rat heart muscarinic acetylcholine receptor M2 using [3H]quinuclidinyl benzilate

O=C(O[C@H]1CN2CCC1CC2)C1CCc2ccccc2N1c1ccccc1 (stereo partly drawn)
Ki [1]: 0.0094 µM
Ki [2]: 0.026 µM
Ki [3]: 0.14 µM
